Binding of CDR-mutated scFvs to a peptide of the spike HR2 region

Data: MIT Lincoln Laboratory AlphaSeq set, Engelhart et al. 2022, doi:10.1038/s41597-022-01779-4, as distributed in FLAb.

Antigen: PDVDLGDISGINAS, a 14-residue peptide of the SARS-CoV-2 spike HR2 region.

Ab-95 is the parent antibody, in scFv form: VH, then a 15-residue (Gly4Ser)3 linker, then VL. The heavy chain is unchanged in all variants.
VH: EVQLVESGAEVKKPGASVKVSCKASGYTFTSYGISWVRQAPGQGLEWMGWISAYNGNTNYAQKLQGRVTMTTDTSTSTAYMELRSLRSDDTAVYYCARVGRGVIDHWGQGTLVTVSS
VL: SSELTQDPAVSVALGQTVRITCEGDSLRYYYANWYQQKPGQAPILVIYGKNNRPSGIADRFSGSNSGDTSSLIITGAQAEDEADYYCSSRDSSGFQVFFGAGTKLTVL

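The starting antibody came from a phage panning campaign against this peptide. AAYL52 was designed without a model: most single CDR substitutions and a random sample of double and triple ones. The scFvs were displayed on barcoded MATa yeast, the peptide on MATalpha yeast. Pairs that bind mate more often; barcode pairs of the diploids are counted by sequencing. The ratio of observed to expected reads was calibrated, replicate by replicate, on BCL2-family standards whose Kd was known from biolayer interferometry. The assay was run in three technical replicates.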

Positions count from residue 1 of the parent VL; G24H puts H in place of G.
Numbers give log10(Kd / nM), so 0 is 1 nM and 3 is 1 µM. Smaller is tighter.
Replicates are averaged; those with no signal do not enter the mean.
A pair that was not seen in any replicate is written "nd"; this usually means weak binding, but a binder can also be missed.
Three control strains display no target. For library AAYL52, 28% of the pairings with them gave a signal, with a median of 3.91 and one signal in twenty below 2.90, so weak values seen in few replicates may be background.

"log10 Kd (nM), mean",detected,changes
3.56,2/3,G24H/P54F/S92L
3.30,1/3,N52L/R90D
nd,0/3,L27G/N33R/S88R
4.13,1/3,G49Q/P54G/G94K
3.98,1/3,S26I/S89D/V97P
2.50,3/3,K50M/S92D/S93L
4.51,2/3,G24W/S92W/F98S
3.00,3/3,R28D/Y29V/N52R
3.58,3/3,S26D/D91Q
nd,0/3,N51H/S55K/F98L
nd,0/3,G24H/R53D
3.83,1/3,A32S/S55M/F95K
1.98,3/3,E23C/G24R/Y30G
2.26,3/3,Y31C/D91Y/F98Y
2.52,3/3,P54T/S92G/S93R
2.91,1/3,Y31P/A32D/G94D
0.77,3/3,R28A/Y30S/G94F
4.17,3/3,L27I/Y29C/N52L
2.32,3/3,E23Q/K50N/R90I
3.26,3/3,Y29L/K50V/N52F
4.24,1/3,S92Y/S93V/F98R
3.36,2/3,Y30T/N33V/N52E
2.60,3/3,E23K/L27N/P54C
3.43,1/3,Y31A/S88D
1.83,3/3,Y29H/S55G
3.17,1/3,S26C/S88A
5.47,2/3,L27H/S93K/F98G
2.14,3/3,Y30P/N51E/S88C
nd,0/3,A32R/R53I/S88G
3.61,1/3,G24A/G49F/D91N
4.71,1/3,D25N/G49V
nd,0/3,G49Y/S89R/S92P
2.64,3/3,N52T/S92Q/F95G
4.03,2/3,L27T/R28Q/S93Y
2.80,3/3,R28E/K50R/S89G
5.31,1/3,N33G/F95K/F98Q
4.64,1/3,N33T/G49K/K50R
5.60,1/3,P54I/S89P/Q96L
3.64,3/3,S26P/L27A/K50H
2.68,2/3,S26M/Y30F/A32C
3.18,3/3,S26F/N52M
2.73,3/3,N52Y/S89E/F98K
3.20,3/3,S26G/P54C/S93I
nd,0/3,P54C/V97L
nd,0/3,A32Q/N51D/D91T
2.65,3/3,R90A/S93G

A selection of 7 entries from above:

{"changes": "N52T/S92Q/F95G", "log10 Kd (nM), mean": "2.64", "detected": "3/3"}
{"changes": "P54I/S89P/Q96L", "log10 Kd (nM), mean": "5.60", "detected": "1/3"}
{"changes": "S26I/S89D/V97P", "log10 Kd (nM), mean": "3.98", "detected": "1/3"}
{"changes": "Y29H/S55G", "log10 Kd (nM), mean": "1.83", "detected": "3/3"}
{"changes": "Y30P/N51E/S88C", "log10 Kd (nM), mean": "2.14", "detected": "3/3"}
{"changes": "N33G/F95K/F98Q", "log10 Kd (nM), mean": "5.31", "detected": "1/3"}
{"changes": "E23C/G24R/Y30G", "log10 Kd (nM), mean": "1.98", "detected": "3/3"}